Data reported in patent US9642920B2, “Therapeutic agent delivery system and method” (Case Western Reserve University, priority 2009, dated 2017).

Test system: U-87 MG cells
Details: mouse, in vivo

DOX extracted from polymer removed from euthanized mice: no traceable DOX
Substance: dextran
